Test system: mCRPC with pathogenic AR mutations (L702H, T878A, H875Y) or wild-type AR
Experiment: Phase 2 clinical study, progression free survival in second-line mCRPC subjects (NCT03480646)
Assay type: in vivo, human
Details: subjects with pathogenic AR mutations (L702H, T878A, H875Y) compared with wild-type AR subjects; FIG. 1

CNC(=O)c1ccc(N2C(=S)N(c3ccc(C#N)c(C(F)(F)F)c3)C(=O)C2(C)C)cc1F [enzalutamide]
average progression free survival: lower average progression free survival

Reference: patent publication US20230414593A1, “EZH2 INHIBITION THERAPIES FOR THE TREATMENT OF ANDROGEN RECEPTOR MUTATED PROSTATE CANCERS” (Constellation Pharmaceuticals, Inc, priority 2020, published 2023)
